This test has as its target T1, α1A (Homo sapiens, UniProt P35348).
T1 sequence (P35348 1-466): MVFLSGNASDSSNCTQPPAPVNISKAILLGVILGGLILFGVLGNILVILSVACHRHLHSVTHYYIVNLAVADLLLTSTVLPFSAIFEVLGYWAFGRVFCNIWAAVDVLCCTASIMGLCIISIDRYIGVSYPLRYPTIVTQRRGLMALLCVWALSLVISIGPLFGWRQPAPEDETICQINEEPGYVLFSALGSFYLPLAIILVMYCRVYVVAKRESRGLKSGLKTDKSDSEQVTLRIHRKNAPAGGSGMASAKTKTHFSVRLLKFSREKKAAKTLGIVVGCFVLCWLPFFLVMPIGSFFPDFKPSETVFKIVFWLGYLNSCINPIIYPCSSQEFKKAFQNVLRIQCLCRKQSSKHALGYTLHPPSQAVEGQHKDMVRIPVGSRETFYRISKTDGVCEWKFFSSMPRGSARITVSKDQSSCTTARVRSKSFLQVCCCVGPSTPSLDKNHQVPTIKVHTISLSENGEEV
In words: biochemical.

For orientation: Ki means a measure of affinity in units of concentration, obtained from inhibition or displacement. The low end stands for a stronger hold on the target, the high end for a looser hold on the target. With `Cc1cc2c(s1)Nc1ccccc1N=C2N1CCN(C)CC1` [Olanzapine], the affinity, expressed as Ki, was 109 nM.

Values taken from patent US20140350029A1 (published 2014).
